Source: ChEMBL document CHEMBL4334464, “From Phenylthiazoles to Phenylpyrazoles: Broadening the Antibacterial Spectrum toward Carbapenem-Resistant Bacteria” (J Med Chem, 2019)

Experiments:
Escherichia coli [1] = assay: Antimicrobial activity against Escherichia coli JW55031 harboring deltatolC mutant after 18 to 20 hrs in aerobic condition by CLSI protocol based broth microdilution assay; assay type: functional
Escherichia coli [2] = assay: Antibacterial activity against Escherichia coli BW25113 clinical isolates after 18 to 20 hrs in aerobic condition by CLSI-based broth microdilution assay; assay type: functional
Acinetobacter baumannii = conditions: ATCC BAA 1747
Escherichia coli [3] = conditions: ATCC 1411
Pseudomonas aeruginosa [4] = conditions: ATCC 9027
Pseudomonas aeruginosa [5] = conditions: ATCC 25619

Measured: MIC

GENTAMICIN
0.5 µg/mL: all assays above
